Test results taken from patent US20200330467A1, “METHOD AND PHARMACEUTICAL COMPOSITIONS FOR THE TREATMENT OF MULTIPLE MYELOMA” (priority 2016, published 2020).

System: primary myeloma cells from patients
Assay: cells
Details: Homo sapiens, 96 h, read-out: reduction of median number of viable myeloma cells
Text: Results are median values of the numbers of myeloma cells in the culture wells.

## COc1cc2nc(N3CCCC3)nc(NCCCCCN3CCCC3)c2cc1OC [UNC0379]
  cytotoxicity at 1 µM: 19%
  cytotoxicity at 2.5 µM: 57%
  cytotoxicity at 5 µM: 66%
